AlphaSeq binding of Ab-14 heavy chain variants to a spike HR2 peptide

Data: MIT Lincoln Laboratory AlphaSeq set, Li et al. 2023, doi:10.1038/s41467-023-39022-2, as distributed in FLAb.

Target peptide (SARS-CoV-2 spike, HR2 region): PDVDLGDISGINAS

Parent scFv Ab-14: VH joined to VL by a (GGGGS)3 linker. Changes lie in the heavy chain CDRs alone.
VH: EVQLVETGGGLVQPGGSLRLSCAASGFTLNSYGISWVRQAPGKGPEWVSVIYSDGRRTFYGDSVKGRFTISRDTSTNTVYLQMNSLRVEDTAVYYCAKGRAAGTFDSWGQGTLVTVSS
VL: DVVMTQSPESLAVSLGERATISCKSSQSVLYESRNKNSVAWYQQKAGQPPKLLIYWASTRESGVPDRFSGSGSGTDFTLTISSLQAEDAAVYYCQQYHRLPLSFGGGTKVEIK

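Designed CDR sequences, proposed from the first random library and measured here. Their group label is 14H_En_Gibbs (En: ensemble of fine-tuned language models; Gibbs: Gibbs sampling). The scFvs were displayed on barcoded MATa yeast, the peptide on MATalpha yeast. Binding brings cells together so that they mate, and sequencing counts the barcode pairs among the diploids. Scores were corrected for input abundance and mapped to Kd with protein pairs of known affinity run in the same pool. Each pool was mated in six replicate cultures.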

Variants are written as CDR1, CDR2 and CDR3 of the heavy chain (limits as in the source). Parent: GFTLNSYGIS, VIYSDGRRTFYGDSVK, GRAAGTFDS. Scale: log10 of Kd in nM, estimated from mating counts; low values are strong binders. "ND" means that the variant was in the library but no mating with the target was seen in that replicate; the authors take this as a sign of poor binding, and no number exists. The authors' rule: three or more of the six replicates give a measured affinity, fewer mean a poor binder.

| CDR-H1 | CDR-H2 | CDR-H3 | replicates, log10 nM | control signals |
|---|---|---|---|---|
| GFQLDEYGIS | VIYADGLRTAYKDTVK | GSDTGLEMF | ND ND ND ND ND ND | 0/18 |
| GFDLNEYGVS | VIYADGTRTQYTNKVK | GGFSYASTV | ND ND ND ND ND ND | 0/18 |
| GKNLDEYGIS | VIYADGVRSHYAESVK | GQHGTYGVA | ND 2.11 ND ND ND ND | 0/18 |
| GFSLEEYGIS | VIYADGKRDVYADSVK | GSGSGWFDI | ND ND ND ND ND ND | 0/18 |
| GFDLEKYGIH | VIYADGIRTSYSDSVK | GDLSGTFYV | ND ND ND 1.40 0.79 2.01 | 0/18 |
| GFDLEDYGIS | VIYADGKRSFVSNNVK | GQQGNAFSM | ND ND ND ND ND ND | 0/18 |
| GFALDEYGIS | VIYADGTRSAYLETVK | GHTGADFIV | ND ND ND ND ND ND | 0/18 |
| GFNLDEVGIS | VIYADGSRVAYVDNVK | GTVDAVDFV | ND ND ND ND ND ND | 0/18 |
| GFGLDEYGIS | VIYADGQRTVYTQDVK | GLYTFKKGI | ND ND ND ND ND ND | 0/18 |
| GFNIDEYGIS | VIYADGFRAVYTDSVK | GHNGMRLTV | ND ND ND ND ND ND | 0/18 |
| GFSIDEYGIS | VIYADGTRTFYTDNVK | GLIGMFCDI | 0.19 0.37 -0.13 -0.62 -0.17 -0.05 | 1/18 (1.35) |
| GFDLMEYGIS | VIYADGMRQAYANKFK | GGITDSGLI | ND ND ND ND ND ND | 0/18 |
| GQNLDEYGIS | VIYADGMRKQYADSVK | GNMLVGMVA | ND ND 1.92 ND ND ND | 1/18 (2.50) |
| GFDLMEYGIS | VIYADGVRTAYQDQVK | GQEAGALYT | ND ND ND ND ND ND | 0/18 |
| GADLNEYGIS | VIYADGDRKAYQDDFK | GTVGGDFDE | -0.13 0.70 0.39 0.59 0.66 1.41 | 0/18 |
| EFDLNNYGIS | VIYADGLRTQYETKVK | GDVAGTFDS | 0.95 0.78 0.80 0.65 0.83 0.97 | 1/18 (2.86) |
| GFDLEEYGIS | VIYADGIRQSAQDNVK | GLLSGMGIT | ND ND ND ND ND ND | 0/18 |
| GFDVDEQGIS | VIYADGLRSMYANSVK | GTIGGMFFQ | ND ND ND ND ND ND | 0/18 |
| GFNLDEYGIS | VIYADGMRVVYTNDVK | GLYTVLKGK | ND ND ND ND ND ND | 0/18 |
| GFSINEYGIS | VIYADGTRTAYADDVK | GAYDTVAVL | ND ND ND ND ND ND | 1/18 (3.18) |
| GDDLQEYGIS | VIYADGLRTAYGNKVK | GGSNGRVTV | ND ND ND ND ND ND | 0/18 |
| GFNLDEYGVS | VIYADGKRTQYTNNFK | GENAGFFMS | ND ND ND ND ND ND | 0/18 |
| GFDLGEYGVS | VIYADGKRTHYADHVK | GVNLGFFDT | ND ND ND ND ND ND | 1/18 (1.77) |
| GFQLDEFGIS | VIYADGKRSSYVDDVK | GETTGGFKV | ND ND ND ND ND ND | 0/18 |
| GFQIDEYGIS | VIYADGLRTVYSDAVK | GMDTGLFMD | ND ND ND ND ND ND | 1/18 (2.16) |
| GFDLNEYGIS | VIYADGHRTAYSNNVK | GGQAGIALS | ND ND ND ND ND ND | 0/18 |
| GFNLDEYGIS | VIYADGHRTQYHQSVK | GMNNGYIAG | ND ND ND ND ND ND | 0/18 |
| EFDLNEYGIS | VIYADGHRSFYIDTVK | GQVAGIFNM | ND ND ND ND ND ND | 0/18 |
| GRNLDEYGIS | VIYADGERTSYRDNVK | GQTSGHLDM | ND ND ND ND ND ND | 0/18 |
| GKDMNEYGIS | VIYADGSRAAYGDNFK | GELAGTFDM | 1.30 ND ND 1.10 1.51 2.72 | 0/18 |
| GYDIDEYGIS | VIYADGQRTAYQNAVK | GEQDGIMMY | ND ND ND ND ND ND | 0/18 |
| GFNIDEYGIS | VIYADGVRTAYADKVK | GFNQVLSVD | ND ND ND ND ND ND | 1/18 (1.17) |
| GFDLNEYGIS | VIYADGIRQAYEDNVK | GRNIIGFLF | ND ND ND ND ND ND | 0/18 |
| GFNIDEYGIS | VIYADGMRTFYSNRVK | GVVNGGTIS | ND ND ND ND ND ND | 0/18 |
| GFSLDEFGIS | VIYADGMRSFYTDNVK | GINGNALVI | ND ND ND ND ND ND | 0/18 |
| GFDLEKYGIS | VIYADGRRSVYADNVK | GMLGATNGY | ND ND ND ND ND ND | 0/18 |
| GFKLDEYGIS | VIYADGLRMHYANSVK | GEGAGTFTT | 1.86 1.29 2.17 1.34 ND 1.34 | 1/18 (1.82) |

Empty control strains, which show no peptide, gave a signal in 1% of pairings with all heavy chain designs; the median was 2.08 and 95% of these signals were weaker than 0.84. No background was subtracted. Also given: how often the same scFv was detected with the empty control strains, with their mean in brackets. The range of this assay differs from that of the first round, and the authors advise against merging the two.